Experimental data taken from patent US8957114B2, “Formulations, salts and polymorphs of transnorsertraline and uses thereof” (Sunovion Pharmaceuticals Inc., priority 2009, dated 2015).

How the values were obtained:
[1] = Solubility of transnorsertraline salts in de-ionized water (HPLC); conditions: for Solubility in Freebase Equivalents mgA/mL: de-ionized water, ambient, shaken up to nine days until equilibrium
Procedure: For each salt, saturated solutions with excess solids in deionized water were prepared in 20 mL clear glass scintillation vials with screw caps. All samples were shaken at 300 rpm at ambient conditions for up to nine days until equilibrium was achieved. Solubility was determined using a HPLC method (Table 5).

[2] = Solubility of transnorsertraline salts in aqueous buffer systems (SGF, acetate buffer pH 4.5, SIF; HPLC); type: physicochemical; conditions: for Solubility in Freebase Equivalents mgA/mL: ambient, up to nine days
Procedure: Saturated solutions with excess solids were prepared in 20 mL clear glass scintillation vials. Simulated gastric fluid (pH 1.0, ˜0.1N HCl, 0.03M NaCl, no enzymes), simulated intestinal fluid (pH 6.8, 0.05M KH2PO4, ˜0.02N NaOH, no enzymes), and acetate buffer (pH 4.5, 0.02M sodium acetate, 0.03M acetic acid) were prepared in accordance with USP28 (USP28 Test Solutions p2855, Volumetric Solutions p2863). […] Solubility was determined using a HPLC method.

[3] = Simulated Gastric Fluid (no enzymes)
[4] = Simulated Intestinal Fluid (pH 6.8, no enzymes)

Substance | Solubility in Freebase Equivalents mgA/mL [1] | pH ([1]; saturated solution in de-ionized water) | Solubility in Freebase Equivalents mgA/mL ([2]; 0.05M Acetate Buffer (pH 4.5)) | Solubility in Freebase Equivalents mgA/mL [2, 3] | Solubility in Freebase Equivalents mgA/mL [2, 4] | pH ([2]; saturated solution in 0.05M Acetate Buffer (pH 4.5)) | pH ([2]; saturated solution in Simulated Gastric Fluid) | pH ([2]; saturated solution in Simulated Intestinal Fluid)
Benzoate | 0.59 mgA/mL | 6.34 | 0.79 mgA/mL | <0.01 mgA/mL | 0.11 mgA/mL | 4.61 | 1.25 | 6.77
L-tartrate | 0.44 mgA/mL | – | 0.03 mgA/mL | <0.01 mgA/mL | 0.27 mgA/mL | – | – | –
